Assay results: PMC6150300

Biological target: Dps protein of Escherichia coli (Escherichia coli) (UniProt P0ABT2)
Test: SEC; as a3, but incubated 30 min at room temperature with 1 mM Mohr's salt

Dps protein of Escherichia coli (from UniProt P0ABT2 1-163) (natural protein)
stoichiometry N: 12
